Where two headings read alike, the source gives them in different places.
Assays:
[1] = biological target: human GlyT1c (Homo sapiens (Human), UniProt P48067); test: [3H]-Glycine uptake into recombinant CHO cells expressing human GlyT1; assay type: cell-based; conditions: read-out: Glycine uptake IC50, hGlyT1c_5_CHO cells, 200 nM [3H]-glycine
Protocol: [^3H]-Glycine uptake into recombinant CHO cells expressing human GlyT1: Human GlyT1c expressing recombinant hGlyT1c—5_CHO cells were plated at 20,000 cells per well in 96 well Cytostar-T scintillation microplates (Amersham Biosciences) and cultured to sub-confluency for 24 h. […] The plates were placed in a Wallac Microbeta (PerkinElmer) and continuously counted by solid phase scintillation spectrometry during up to 3 hours. […] IC50 calculations were made by four-parametric logistic nonlinear regression analysis (GraphPad Prism) using determinations within the range of linear increase of [^3H]-glycine incorporation between 60 and 120 min.

Protein sequences, listed by entry. Tags and fused reporters are not part of them.
UniProt P48067, whole entry: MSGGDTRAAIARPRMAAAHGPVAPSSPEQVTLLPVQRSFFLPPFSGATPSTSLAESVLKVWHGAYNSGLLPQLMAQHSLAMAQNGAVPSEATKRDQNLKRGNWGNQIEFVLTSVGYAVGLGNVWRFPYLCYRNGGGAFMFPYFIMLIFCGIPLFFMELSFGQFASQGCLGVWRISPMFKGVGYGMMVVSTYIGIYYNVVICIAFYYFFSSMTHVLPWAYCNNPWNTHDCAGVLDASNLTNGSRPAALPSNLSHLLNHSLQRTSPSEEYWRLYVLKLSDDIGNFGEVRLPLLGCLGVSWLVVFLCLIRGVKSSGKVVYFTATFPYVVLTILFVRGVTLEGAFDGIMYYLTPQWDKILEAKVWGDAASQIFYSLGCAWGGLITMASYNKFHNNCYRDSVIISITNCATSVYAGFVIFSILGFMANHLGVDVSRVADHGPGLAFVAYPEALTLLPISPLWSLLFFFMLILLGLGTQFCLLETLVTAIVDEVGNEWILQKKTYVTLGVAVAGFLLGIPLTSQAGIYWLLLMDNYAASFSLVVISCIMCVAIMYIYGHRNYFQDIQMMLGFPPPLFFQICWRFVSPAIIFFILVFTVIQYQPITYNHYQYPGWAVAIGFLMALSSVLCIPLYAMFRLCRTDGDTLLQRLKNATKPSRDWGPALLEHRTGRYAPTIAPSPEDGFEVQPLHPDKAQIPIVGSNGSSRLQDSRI

[2] = biological target: human GlyT1c transporter (Homo sapiens (Human), UniProt P48067); test: Radioligand binding assay using recombinant CHO cell membranes expressing human GlyT1; conditions: read-out: radioligand binding Kiapp, radioligand [3H]-(R)-NPTS (examples 1-19, 22-52, 54-87), tested form: HCl
Protocol: 2. Radioligand binding assays using recombinant CHO cell membranes expressing human GlyT1:
Radioligand binding to human GlyT1c transporter-expressing membranes was carried out as described in Mezler et al., Molecular Pharmacology 74:1705-1715, 2008.
More specifically, [^3H]-(R)-NPTS radioligand binding to human GlyT1c transporter-expressing membranes was measured in duplicate in a total volume of 200 μl in 96-well plates. To 100 μl of membrane suspension (yielding a final membrane protein concentration of 50 μg/ml) in assay buffer (120 mM NaCl, 2 mM KCl, 10 mM Hepes, 1 mM MgCl2, 1 mM CaCl2, pH 7.5) […] of [^3H]-(R)-NPTS (0.5 nM final) were added in assay buffer. For competition experiments 10 μl of buffer or unlabeled compound solution obtained from dilution series of test compounds in DMSO followed. An intermediate 1:10 dilution in assay buffer yielded a final DMSO concentration of 1%. Non-specific binding was determined in the presence of 10 μM Org24598 (or its racemate Org24461) for [^3H]-(R)-NPTS. After incubation at room temperature for 1 h, the incubation mixture was harvested (Tomtec Mach III U Harvester) through 96-well GF/B filter plates (PerkinElmer), presoaked for 1 h with 40 μl per well of 0.1% polyethylene-imine (PEI). […] The radioactivity was determined by liquid scintillation spectrometry in a MicroBeta (PerkinElmer) plate counter. […]

SMILES	IC50 ([1]; tested form: HCl)	Ki [2]	IC50 ([1]; tested form: 2HCl)
CCCS(=O)(=O)NCCOc1ccc(Br)c2c1C(C1(c3ccc(F)cc3)CCC1)NCC2 (stereo not shown)	≤ 1 µM		
CC(C)S(=O)(=O)NCCOc1ccc2c(c1)CCNC2C1(c2ccc(Cl)cc2)CCC1 (stereo not shown)	≤ 100 µM	≤ 100 µM	
O=S(=O)(NCCOc1ccc2c(c1)CCNC2C1(c2ccc(Cl)cc2)CCC1)c1cccnc1 (stereo not shown)			≤ 10 µM

Source: patent US8653100B2 (AbbVie Inc., priority 2008, dated 2014)
